From PubChem BioAssay AID493005 (National Center for Advancing Translational Sciences (NCATS), 2010)
Only a part is listed here, and it is no random draw. Some results for these compounds are left out of this collection, so the calls shown say nothing about other tests. Activity calls are given as the source filed them. The call rests on the fitted dose curve; in most records, active means well fitted inhibition curve with a large enough effect in the main read-out, with a control signal flat (not every such curve was filed as active); inconclusive means small, poorly fitted or top-dose-only effect, or effect the other way, or a change in a side signal; inactive means no such curve, though single readings can be large or run the other way.

The chains behind the UniProt entries cited, without tags or fusion partners.
UniProt Q99816, whole entry: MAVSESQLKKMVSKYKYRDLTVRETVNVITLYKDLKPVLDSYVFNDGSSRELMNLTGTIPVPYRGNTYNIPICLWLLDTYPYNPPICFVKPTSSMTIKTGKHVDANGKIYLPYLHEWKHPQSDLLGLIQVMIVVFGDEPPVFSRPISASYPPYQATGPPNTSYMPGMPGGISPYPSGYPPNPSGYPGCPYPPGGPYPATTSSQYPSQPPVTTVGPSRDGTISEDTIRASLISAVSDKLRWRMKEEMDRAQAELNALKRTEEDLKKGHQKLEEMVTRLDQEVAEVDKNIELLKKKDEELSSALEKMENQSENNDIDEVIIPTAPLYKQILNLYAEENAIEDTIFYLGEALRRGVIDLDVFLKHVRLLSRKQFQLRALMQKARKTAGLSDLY

target: Tumor susceptibility gene 101 protein (Homo sapiens) (UniProt Q99816); experiment: qHTS Assay for Iinhibitors of HIV-1 Budding by Blocking the Interaction of PTAP/TSG101; conditions: Fluorescence polarization, FITC-PTAP peptide / Tsg101 binding; at 115 µM (top of the series); further: % of control where 0% means no effect
Description: NIH Molecular Libraries Probe Production Network [MLPCN] NIH Chemical Genomics Center [NCGC] MLPCN Grant: 1 R03 MH087464-01A1 PI Name: Dr. Eric Freed, NCI NCGC Assay Overview: Stages of the HIV-1 replication cycle, specifically virus assembly and release, provide underexploited targets for the development of novel antiviral inhibitors. The late stages of HIV-1 replication are mediated by the Gag precursor protein, Pr55Gag. Expression of Pr55Gag is both necessary and sufficient for the production of virus-like particles from Gag-expressing cells. The Gag protein hijacks key host proteins involved in endocytic machinery of the host cell to promote endosomal processing and viral budding. The budding process requires a direct interaction between a […] (PTAP) motif in the p6 domain of Gag and the cellular endosomal sorting protein known as Tsg101. In this way, the Gag PTAP motif promotes the host cells to recruit viral particles to the plasma membrane where the new viral particles are released, effectively turning the host cells into viral factories. A fluorescence anisotropy assay has been developed to quantitatively measure the PTAP-Tsg101 interaction which can be used to screen for inhibitors of this interaction.
NCGC Assay Protocol Summary: Two uL of the Tsg101 binding domain in buffer (10 mM HEPES pH 7.5; 0.15 M NaCl, 0.01% Tween 20; 3 mM EDTA;0.1 mM TCEP) was dispensed into Greiner black MB 1536-well plates (final concentration 10 uM). Then, 23 nL of compounds or DMSO were delivered to each well using a pin tool. Finally, 2 uL of a FITC-labeled peptide containing the PTAP motif (1) in the same buffer was dispensed (50 nM final concentration) and the binding was allowed to proceed for 20 min. at r.t. Fluorescent polarization was determined using FITC excitation and polarized emission filters on a Perkin Elmer Viewlux. Keywords: Tsg101, PTAP, Gag, HIV, fluorescent polarization, MLSMR, MLPCN, NIH Roadmap, qHTS, NCGC

Row | SMILES | activity change, negative = inhibition
1 | CN(C)c1cccc(C(=O)NCC2(N(C)C)CCCCC2)c1 | inactive: -4.93%
2 | O=C(OCCN1CCCC1)C(O)(c1ccccc1)c1ccccc1 | inactive: -3.49%
3 | CC(C)Oc1ccc(C(=O)NCC2(N(C)C)CCCCC2)cc1 | inactive: -6.01%
4 | COc1ccc(Br)c(C(=O)NCC2(N3CCCCC3)CCCCC2)c1 | inactive: -2.4%
5 | O=C(OC1CN2CCC1CC2)C(CO)(c1ccccc1)c1ccccc1 (stereo not given) | inactive: -0.167%
6 | O=C(NCC1(N2CCCCC2)CCCCC1)c1cccc(Cl)c1 | inactive: -2.52%
7 | COc1ccc(Cl)cc1C(=O)NCC1(N(C)C)CCCCC1 | inactive: -0.591%
8 | COc1cccc(C(=O)NCC2(N3CCCCC3)CCCCC2)c1 | inactive: 0.856%
9 | COc1cc(C(=O)NCC2(N(C)C)CCCCC2)c([N+](=O)[O-])cc1OC | inactive: 3.93%
10 | CN(C)C1(CNC(=O)c2ccc(Br)cc2)CCCCC1 | inactive: -1.37%
11 | O=C(NCC1(N2CCCCC2)CCCCC1)c1cccc(Br)c1 | inactive: 0.374%
12 | Cc1cc(C(=O)NCC2(N3CCCCC3)CCCCC2)ccc1[N+](=O)[O-] | inactive: 0.204%
13 | CCN1CCCC(OC(=O)C2(O)c3ccccc3C=Cc3ccccc32)C1 (stereo not given) | inactive: -9.68%
14 | COc1ccc(C(=O)NCC2(N(C)C)CCCCC2)cc1 | inactive: 0.561%
15 | O=C(NCC1(N2CCCCC2)CCCCC1)c1cc(F)c(F)cc1Cl | inactive: -0.547%
16 | C=CCN1CCN(CCOC(=O)C(O)(c2ccccc2)c2ccccc2)CC1 | inactive: -2.83%
17 | CN(C)C1CCCC1OC(=O)C(O)(c1ccccc1)c1ccccc1 (stereo not given) | inactive: -4.32%
18 | CN(C)c1ccc(C(=O)NCC2(N(C)C)CCCCC2)cc1 | inactive: -0.246%
19 | Cc1ccccc1C(=O)NCC1(N2CCCCC2)CCCCC1 | inactive: -1.67%
20 | Cc1ccc(C(=O)NCC2(N3CCCCC3)CCCCC2)cc1 | inactive: 1.99%
21 | CC(C)N1C(=O)CC2(CCN(CCOC(=O)C(O)(c3ccccc3)c3ccccc3)CC2)C1=O | inactive: -3.75%
22 | COc1cc(SC)ccc1C(=O)NCC1(N(C)C)CCCCC1 | inactive: -1.17%
23 | CCN(CC)CC(C)C(C)OC(=O)C(O)(c1ccccc1)c1ccccc1 (stereo not given) | inactive: -4.78%
24 | CN1[C@@H]2CC[C@H]1CC(OC(=O)C(O)(c1ccccc1)c1ccccc1)C2 (stereo not given in full) | inactive: 0.469%
25 | O=C(NCC1(N2CCCCC2)CCCCC1)c1cc([N+](=O)[O-])ccc1Cl | inactive: -5.95%
